Measurements published in ChEMBL document CHEMBL1132690, “Design, synthesis, and biological evaluation of potent thiazine- and thiazepine-based matrix metalloproteinase inhibitors” (J Med Chem, 1999).

Amino acid sequences for entries named in this document (tags omitted). A change or cut given only in a name is not applied to a line headed by its entry.
UniProt P22894: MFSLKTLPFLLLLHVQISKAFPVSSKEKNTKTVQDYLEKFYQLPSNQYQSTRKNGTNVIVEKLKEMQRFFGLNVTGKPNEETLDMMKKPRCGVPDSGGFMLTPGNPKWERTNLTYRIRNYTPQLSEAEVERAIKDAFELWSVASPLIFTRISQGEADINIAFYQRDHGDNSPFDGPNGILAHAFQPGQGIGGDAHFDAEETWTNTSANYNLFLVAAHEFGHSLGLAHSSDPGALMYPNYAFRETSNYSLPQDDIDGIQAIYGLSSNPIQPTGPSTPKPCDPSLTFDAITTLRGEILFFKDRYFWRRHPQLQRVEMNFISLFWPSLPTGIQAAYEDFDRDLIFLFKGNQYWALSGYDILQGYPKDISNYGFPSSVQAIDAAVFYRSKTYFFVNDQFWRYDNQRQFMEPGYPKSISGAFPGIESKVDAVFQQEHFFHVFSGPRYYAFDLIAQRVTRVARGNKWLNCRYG

Biological target: Neutrophil collagenase (Homo sapiens, UniProt P22894)

Structure (SMILES): COc1ccc(S(=O)(=O)N2CCSC(C)(C)[C@@H]2C(=O)NO)cc1
- IC50: 0.7 nM
